Among the data in patent US4339378A, “N-Acylcarnosine aluminum salts” (Nippon Chemiphar Co., Ltd., priority 1979, dated 1982) are LD50 values, retold here.

This data set has as its system Wister strain rats. As to conditions: P.O., observed seven days.

Like-named read-outs stand apart in the source and are kept apart here. A value given as a limit tells only on which side of the number the result lay.

Take N-acetylcarnosine aluminum salt: the LD50 (female rats) was > 10,000 mg/kg and the LD50 (male rats) is given as > 10,000 mg/kg.
